Test results from ChEMBL document CHEMBL4715927, “A New FXR Ligand Chemotype with Agonist/Antagonist Switch” (ACS Med Chem Lett, 2021).
Activity calls are given as the source filed them. The calls are words filed in the database; no cut-off is given here.

Legend:
Assay type in all cases: cell-based
HepG2 [1] = assay: Agonist activity at human FXR/human RXR heterodimer expressing in human HepG2 cells co-expressing pGL3basic-BSEP assessed as response element activation incubated for 24 hrs heterodimer assay
HepG2 [2] = assay: Antagonist activity at human FXR/human RXR heterodimer expressing in human HepG2 cells co-expressing pGL3basic-BSEP assessed as reduction in CDCA-induced activation incubated for 24 hrs heterodimer assay; settings: filed as antagonist
HepG2 [3] = assay: Antagonist activity at human FXR/human RXR heterodimer expressing in human HepG2 cells co-expressing pGL3basic-BSEP assessed as reduction in GW4064-induced response element activation incubated for 24 hrs heterodimer assay; settings: filed as antagonist

## CC(C)(C)c1ccc(-c2cc(CCC(=O)O)n[nH]2)cc1
HepG2 [1]
  Activity: inactive
HepG2 [2]
  Activity: Active
HepG2 [3]
  Activity: Active
